Each compound was assayed against 3CLpro of SARS-CoV-2 (Severe acute respiratory syndrome coronavirus 2, UniProt P0DTD1) (assay: biochemical).

In order of falling IC50:
1. CC(C)C[C@H](NC(=O)OC1CCC(F)(F)CC1)C(=O)N[C@@H](C[C@@H]1CCNC1=O)C(O)S(=O)(=O)[O-].[Na+] (stereo partly drawn) [Compound 7h (Scheme 1), sodium (2S)-2-((S)-2-((((4,4-difluorocyclohexyl)oxy)carbonyl)amino)-4-methylpentan-amido)-1-hydroxy-3-((S)-2-oxopyrrolidin-3-yl)propane-1-sulfonate]  1.6 µM
2. CC(C)C[C@H](NC(=O)OCC1CCC(F)(F)CC1)C(=O)N[C@@H](C[C@@H]1CCNC1=O)C(O)S(=O)(=O)O (stereo partly drawn) [Compound 7j (Scheme 1), sodium (2S)-2-((S)-2-((((4,4-difluorocyclohexyl)methoxy)carbonyl)amino)-4-methylpentan-amido)-1-hydroxy-3-((S)-2-oxopyrrolidin-3-yl)propane-1-sulfonate]  1.1 µM
3. CC(C)C[C@H](NC(=O)OCc1ccc(F)cc1)C(=O)N[C@H](C=O)C[C@@H]1CCNC1=O [Compound 19b, 4-Fluorobenzyl ((S)-4-methyl-1-oxo-1-(((S)-1-oxo-3-((S)-2-oxopyrrolidin-3-yl)propan-2-yl)amino)pentan-2-yl)carbamate]  0.36 µM
4. [2H]C([2H])(OC(=O)N[C@@H](CC(C)C)C(=O)N[C@@H](C[C@@H]1CCNC1=O)C(O)S(=O)(=O)[O-])c1ccc(F)cc1.[Na+] (stereo partly drawn) [Compound 20c, Sodium (2S)-2-((S)-2-((((4-fluorophenyl)methoxy-d2)carbonyl)amino)-4-methylpentan amido)-1-hydroxy-3-((S)-2-oxopyrrolidin-3-yl)propane-1-sulfonate]  0.36 µM
5. [2H]C([2H])(OC(=O)N[C@@H](CC(C)C)C(=O)N[C@H](C=O)C[C@@H]1CCNC1=O)c1ccc(F)cc1 [Compound 20b, (4-Fluorophenyl)methyl-d2 ((S)-4-methyl-1-oxo-1-(((S)-1-oxo-3-((S)-2-oxopyrrolidin-3-yl)propan-2-yl)amino)pentan-2-yl)carbamate]  0.35 µM

Reference: patent US12583820B2, “Broad spectrum antivirals against coronavirus” (priority 2020, dated 2026)
